Assay results reported in PubChem BioAssay AID425 (Sanford-Burnham Center for Chemical Genomics, 2006).
“And” between values parts separate entries of the source, which are not always exact repeats. Identical values can stand only once. The list shows a part of the results, in another mix than the full data. Potency and affinity values are given separately. The source made the active and inactive calls. Cut-off read from the data, not from the text of the source: active = inhibition above about 50%; inactive = the rest.

Chains of the proteins cited; added tags and fusions are not shown.
UniProt Q64346, whole entry: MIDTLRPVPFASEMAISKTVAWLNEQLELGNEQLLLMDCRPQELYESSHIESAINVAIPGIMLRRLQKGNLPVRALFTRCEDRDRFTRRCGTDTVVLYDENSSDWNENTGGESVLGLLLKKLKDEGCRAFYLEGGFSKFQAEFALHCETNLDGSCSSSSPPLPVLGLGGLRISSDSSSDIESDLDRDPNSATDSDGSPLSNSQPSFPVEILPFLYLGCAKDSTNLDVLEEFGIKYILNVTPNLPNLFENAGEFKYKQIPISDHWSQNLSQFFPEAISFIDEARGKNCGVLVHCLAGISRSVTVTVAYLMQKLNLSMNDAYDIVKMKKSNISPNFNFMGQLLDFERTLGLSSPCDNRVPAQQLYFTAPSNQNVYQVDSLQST

Target: Dual specificity protein phosphatase 6 (Rattus norvegicus) (UniProt Q64346)
Assay: inhibition of rat DUSP6 enzyme activity – biochemical, in vitro, primary screen (AID 425);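 note: plate controls were vehicle for no effect and reference inhibitor for full effect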
Conditions: recombinant MKP-3 phosphatase activity, fluorescence; at 20 µM; hits give high values

SMILES	inhibition
Cc1ccc(NP(C)(=O)Oc2ccccc2)c(C)c1 (stereo not drawn)	inactive: -12.4%
CP(=O)(NC(=O)Nc1ccccc1)Oc1ccccc1 (stereo not drawn)	inactive: -7.7%
CCOP(C)(=S)SCC(=O)NC(C)C(=O)O (stereo not drawn)	inactive: -1.9% and inactive: -12.5%
CP(=O)(Oc1ccccc1F)Oc1ccccc1F	inactive: -11.9%
CN(C)CCOC(=O)C(O)(c1ccccc1)c1ccccc1	inactive: -4.8%
CP(=S)(Nn1cnnc1)Oc1ccccc1 (stereo not drawn)	inactive: 9.9%
Cc1nc2ccc3ccccc3c2s1.O=[N+]([O-])c1cc([N+](=O)[O-])c(O)c([N+](=O)[O-])c1	inactive: 6.1%
CP(=O)(Oc1ccccc1)Oc1ccccc1	inactive: -2.4%
Cc1ccc(C)c(NP(C)(=O)Oc2ccccc2)c1 (stereo not drawn)	inactive: 0%
CP(=O)(Oc1ccc(Cl)cc1)Oc1ccc(Cl)cc1	inactive: 0.9%
CP(=O)(Nc1ccccc1F)Oc1ccccc1 (stereo not drawn)	inactive: 9.9%
CCOP(C)(=S)SCC(=O)NC(C)(CC)C(=O)O (stereo not drawn)	inactive: -6.2%
CP(=O)(Nc1ccc2c(c1)OCCO2)Oc1ccccc1 (stereo not drawn)	inactive: 1.5%
Cc1ccccc1NP(C)(=O)Nc1ccccc1C	inactive: -2.4%
CP(=O)(Oc1ccc(F)cc1)Oc1ccc(F)cc1	inactive: 2.2%
CN(C)CCOC(=O)C(O)(c1ccccc1)C1CCCCC1 (stereo not drawn)	inactive: -6.6%
CCN(CC)CC(O)COC(=O)C(O)(c1ccccc1)C1CCCCC1 (stereo not drawn)	inactive: 3.9%
COc1ccccc1OP(C)(=O)Nc1c(C)n(C)n(-c2ccccc2)c1=O (stereo not drawn)	inactive: -12.8%
CP(=O)(Oc1ccccc1)N1CCOC1=O (stereo not drawn)	inactive: -1.9%
CP(=O)(Nc1ccccn1)Oc1ccccc1 (stereo not drawn)	inactive: -3.5%
CCc1ccc(OP(C)(=O)O)cc1	inactive: 5.7%
COc1ccccc1OP(C)(=O)Nc1ccc(C)c(C)c1 (stereo not drawn)	inactive: -6.9%
Cc1nc2ccc3ccccc3c2o1.O=[N+]([O-])c1cc([N+](=O)[O-])c(O)c([N+](=O)[O-])c1	inactive: 0.3%
